Measurements from patent publication US10736932B2, “Small molecule Ras inhibitors” (Ohio State Innovation Foundation, priority 2014, dated 2020).

Columns and labels:
K-Ras(G12V) = target: T1, K-Ras(G12V) (Homo sapiens, UniProt P01116, G12V); test: Fluorescence anisotropy (FA) binding of FITC-labeled cyclic peptides to K-Ras; conditions: Table 1, resynthesized FITC-labeled peptides
T1 construct: The G12V mutant K-Ras (amino acids 1-185) was recombinantly fused; GST (N, cleaved yes); made in house; host or cells: Escherichia coli BL21

[1] = target: T2, K-Ras / Raf RBD interaction (Homo sapiens, UniProt P01116, G12V); test: HTRF assay, inhibition of Ras-Raf RBD interaction; type: binding;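 note: HTRF signal read after overnight incubation of the assay plate at 4 °C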
T2 construct: The G12V mutant K-Ras (amino acids 1-185) was recombinantly fused; GST (N, cleaved yes); made in house; host or cells: Escherichia coli BL21

| Substance | Kd (K-Ras(G12V)) [µM] | IC50 [1] [µM] |
| --- | --- | --- |
| (Arg-Arg-nal-Arg-Fpa-ala-Fpa-Thr-nal-Gln) [Cyclorasin 11A] | > 10 | – |
| (Arg-Arg-nal-Arg-Fpa-nle-Tyr-asn-ala-Ile-Gln) [Cyclorasin 10A] | > 10 | – |
| (BzlHis-Thr-ala-arg-Arg-Arg-nal-Arg-Fpa-nle-Gln) [Cyclorasin 9A8] | – | 0.59 ± 0.12 |
